For assay [1], the target named is T1, human 5-HT2C-INI (WT) receptor (Homo sapiens, UniProt P28335, Y358A). As to the kind of experiment: radioligand saturation binding, HEK membranes.
Assay [2] has as its target T2, human 5-HT2C-INI (WT) receptor (Homo sapiens, UniProt P28335, S138A). The experiment in a line: [3H]-inositol phosphate accumulation. Type of assay: cell-based.
Assay [3] deals with human 5-HT2C-INI (WT) receptor (Homo sapiens, UniProt P28335). The experiment in a line: radioligand saturation binding, HEK membranes. As to conditions: read-out: [^3H]-Mesulergine / Kd; labelled compound; 50 mM Tris, 10 mM MgCl2, 0.1 mM EDTA; room temperature, 90 min.
For assay [4], the target named is T1, human 5-HT2C-INI (WT) receptor. The experiment in a line: [3H]-inositol phosphate accumulation. The format is cell-based.
Assay [5] has as its target T2, human 5-HT2C-INI (WT) receptor. The experiment in a line: radioligand saturation binding, HEK membranes.

By UniProt entry, the sequences of proteins in these tests, tags left out. Residues count along the entry.
UniProt P28335, 33-458 Y358A: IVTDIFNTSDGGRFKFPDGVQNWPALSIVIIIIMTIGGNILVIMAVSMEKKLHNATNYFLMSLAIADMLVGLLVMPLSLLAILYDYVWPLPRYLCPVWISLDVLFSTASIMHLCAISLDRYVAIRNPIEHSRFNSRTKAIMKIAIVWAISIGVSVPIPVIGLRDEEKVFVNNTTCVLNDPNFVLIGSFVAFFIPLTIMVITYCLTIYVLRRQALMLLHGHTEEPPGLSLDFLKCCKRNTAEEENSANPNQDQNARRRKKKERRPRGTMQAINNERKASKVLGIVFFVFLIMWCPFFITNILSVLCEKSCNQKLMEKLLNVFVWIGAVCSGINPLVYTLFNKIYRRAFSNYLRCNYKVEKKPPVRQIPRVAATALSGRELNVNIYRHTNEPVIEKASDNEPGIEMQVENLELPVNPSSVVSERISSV
UniProt P28335, 33-458 S138A: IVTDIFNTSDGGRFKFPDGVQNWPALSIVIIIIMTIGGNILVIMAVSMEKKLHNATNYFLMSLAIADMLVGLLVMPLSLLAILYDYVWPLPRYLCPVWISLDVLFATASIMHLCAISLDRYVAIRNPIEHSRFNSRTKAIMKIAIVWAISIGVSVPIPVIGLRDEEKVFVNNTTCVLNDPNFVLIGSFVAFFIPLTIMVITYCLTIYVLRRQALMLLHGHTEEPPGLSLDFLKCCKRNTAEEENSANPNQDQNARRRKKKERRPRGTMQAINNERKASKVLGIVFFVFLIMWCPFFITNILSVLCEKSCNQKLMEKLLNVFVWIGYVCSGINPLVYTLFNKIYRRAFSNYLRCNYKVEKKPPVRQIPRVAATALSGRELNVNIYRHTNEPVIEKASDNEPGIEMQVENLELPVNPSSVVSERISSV
UniProt P28335, 33-458: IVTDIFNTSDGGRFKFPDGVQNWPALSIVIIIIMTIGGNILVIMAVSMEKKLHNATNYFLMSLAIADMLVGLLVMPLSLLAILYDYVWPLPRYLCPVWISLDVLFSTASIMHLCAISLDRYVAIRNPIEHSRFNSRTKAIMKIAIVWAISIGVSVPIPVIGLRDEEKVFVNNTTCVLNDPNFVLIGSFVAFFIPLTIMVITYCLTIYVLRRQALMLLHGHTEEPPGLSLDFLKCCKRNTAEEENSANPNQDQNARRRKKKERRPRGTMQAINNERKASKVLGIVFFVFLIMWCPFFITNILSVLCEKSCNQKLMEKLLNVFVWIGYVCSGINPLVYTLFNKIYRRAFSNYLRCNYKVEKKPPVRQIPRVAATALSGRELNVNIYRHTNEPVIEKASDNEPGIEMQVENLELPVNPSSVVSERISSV

By EC50 is commonly meant the concentration giving half of the maximal effect. Lower therefore signals an effect from little substance. What is called IC50 is the concentration at which inhibition is half-maximal. The low end stands for inhibition by little substance, the high end for a need for much substance.

On to `CN1C[C@@H](NS(=O)(=O)N(C)C)C[C@@H]2c3cccc4c3c(cn4C)C[C@H]21` [[^3H]-mesulergine], for which the Kd is 3 nM in assay [1], 1.8 nM in assay [3] and 2 nM in assay [5]. For the same molecule, it took 19.9 nM to reach a half-maximal effect in assay [2] (EC50). Further, the midpoint of inhibition in assay [4], the IC50, lay at 38.9 nM.

(Values after article PMC3224194 (European journal of pharmacology, 2011).)
